{"source": "patent US20150328277A1", "about": "(Teva Pharmaceutical Industries, Ltd., priority 2012, published 2015)", "origin": "cited, not measured here"}
{"substance": "L-glutamic acid polymer with L-alanine, L-lysine, L-tyrosine, acetate (salt) [glatiramer acetate]", "values": [{"measurement": "patients reporting Immediate Post-Injection Reaction (IPIR)", "setting": "clinical trials, 13% on placebo", "value": 31, "unit": "%"}, {"measurement": "proportion of patients reporting injection-site reactions at least once", "setting": "controlled studies, placebo injections 37%", "value": 70, "unit": "%"}]}
